Test: stability of L-Biopterin in K2 EDTA human plasma (LC/MS/MS)
Assay type: in vitro ADME
Protocol: Published methods are based on the classical method developed by Fukushima and Nixon (Anal. Biochem., 102, 176-188 (1980)) using HPLC with fluorescence detection. In the LC/MS/MS method, the human plasma sample was stabilized with antioxidant, spiked with an internal standard (IS) solution and basified with sodium hydroxide solution, then oxidized with iodine solution. Upon incubation in dark at room temperature, ascorbic acid is added to reduce the excess iodine. Oxidized samples were extracted by protein precipitation. L-Biopterin in the reconstituted extracts was analyzed by using reversed-phase HPLC with Turbo Ion Spray® MS/MS detection. Negative ions for L-Biopterin were monitored in MRM mode. Drug-to-IS peak area ratios for the standards were used to create a linear calibration curve using 1/x^2 weighted least-squares regression analysis.
The oxidation conversion ratio of BH4 to L-Biopterin was evaluated at multiple time-points: 0, 1, 2, 4, 8, 12 and 23 weeks, and found consistent in all the tested time-points with a nominal molar conversion ratio of 47.3% determined from the first three consecutive time-points. The difference between the conversion ratio at other time-points and the nominal value ranges from −2.3 to 6.3%. The LC/MS/MS method was validated to quantify L-Biopterin in K2 EDTA human plasma in the linear calibration range of 5 to 1000 ng/mL (equivalent to 11 to 2114 ng/mL for BH4). […] The mean extraction recovery for L-Biopterin was 65.3%.

Question: Which “freeze thaw cycles after which stable” value does the source give for L-Biopterin here?
Answer: 4 freeze thaw cycles

Question: What about the “time stable at room temperature” value of the same substance?
Answer: at least 4 hours

Question: What about the “time stable at −70° C.” value of the same substance?
Answer: at least 275 days
